Experiment: Solubility of the active in the receptor fluid
Type: physicochemical
Conditions: 96 wt % PBS at pH 7.4 and 4 wt % hydroxyl propyl beta cyclodextrin

paclitaxel
solubility of the active in the receptor fluid: ~0.4 µg/mL

— patent publication US20190216767A1, “TOPICAL THERAPY FOR THE TREATMENT OF SKIN KERATOSES USING NANOPARTICLES OF TAXANES” (DFB SORIA, LLC, priority 2017, published 2019)
